# Laboratory results from patent US20240360082A1, “SUBSTITUTED PYRIDONE COMPOUNDS USEFUL TO TREAT ORTH[…]” (priority 2021, published 2024).
# Read-outs that look alike come from different tables or passages of the source.
# Test system: influenza virus (multiple flu strains)
# Experiment: organism not typed
# Conditions: MDCK
# [1] = read-out: NA Alaska H3N2 IC50, NA assay, Alaska H3N2 strain
# [2] = read-out: NA CAL H1N1 IC50, NA assay, CAL H1N1 strain
smiles,measurement,setting,value
"NC(=O)c1cc(-c2ccc(OCC(O)CN3CCOCC3)cc2)c(C(F)(F)F)[nH]c1=O (centres unmarked) [Example 260, 5-(4-(2-hydroxy-3-morpholinopropoxy)phenyl)-2-oxo-6-(trifluoromethyl)-1,2-dihydropyridine-3-carboxamide]",IC50,[1],1000 to 5000 nM
same,IC50,[2],25000 to 50000 nM
"NC(=O)c1cc(-c2ccc(OC[C@H]3COC[C@@H](C4CC4)O3)cc2)c(C(F)(F)F)[nH]c1=O [Example 325, 5-(4-(((2R,6R)-6-cyclopropyl-1,4-dioxan-2-yl)methoxy)phenyl)-2-oxo-6-(trifluoromethyl)-1,2-dihydropyridine-3-carboxamide]",IC50,[1],10 to 100 nM
same,IC50,[2],100 to 1000 nM
"C[C@@H]1COC[C@H](COc2ccc(-c3cc(C(N)=O)c(=O)[nH]c3C(F)(F)F)cc2)O1 [Example 328, 5-(4-(((2R,6R)-6-methyl-1,4-dioxan-2-yl)methoxy)phenyl)-2-oxo-6-(trifluoromethyl)-1,2-dihydropyridine-3-carboxamide]",IC50,[1],10 to 100 nM
same,IC50,[2],10 to 100 nM
"C[C@@H]1COC[C@@H](COc2ccc(-c3cc(C(N)=O)c(=O)[nH]c3C(F)(F)F)cc2)O1 [Example 329, 5-(4-(((2S,6R)-6-methyl-1,4-dioxan-2-yl)methoxy)phenyl)-2-oxo-6-(trifluoromethyl)-1,2-dihydropyridine-3-carboxamide]",IC50,[1],10 to 100 nM
same,IC50,[2],100 to 1000 nM
"C[C@H]1COC[C@@H](COc2ccc(-c3cc(C(N)=O)c(=O)[nH]c3C(F)(F)F)cc2)O1 [Example 330, 5-(4-(((2S,6S)-6-methyl-1,4-dioxan-2-yl)methoxy)phenyl)-2-oxo-6-(trifluoromethyl)-1,2-dihydropyridine-3-carboxamide]",IC50,[1],10 to 100 nM
same,IC50,[2],10 to 100 nM
"NC(=O)c1cc(-c2ccc(OC[C@H]3CO[C@H]4[C@@H](O3)C4(F)F)cc2)c(C(F)(F)F)[nH]c1=O [Example 391, 5-(4-((trans-7,7-difluoro-2,5-dioxabicyclo[4.1.0]heptan-3-yl)methoxy)phenyl)-2-oxo-6-(trifluoromethyl)-1,2-dihydropyridine-3-carboxamide]",IC50,[1],10 to 100 nM
same,IC50,[2],10 to 100 nM
"C[C@]12O[C@H](COc3ccc(-c4cc(C(N)=O)c(=O)[nH]c4C(F)(F)F)cc3)CO[C@H]1C2(F)F [Example 394, 5-(4-(((1S,3S,6R)-7,7-difluoro-1-methyl-2,5-dioxabicyclo[4.1.0]heptan-3-yl)methoxy)phenyl)-2-oxo-6-(trifluoromethyl)-1,2-dihydropyridine-3-carboxamide]",IC50,[1],10 to 100 nM
same,IC50,[2],10 to 100 nM
"C[C@@]12O[C@H](COc3ccc(-c4cc(C(N)=O)c(=O)[nH]c4C(F)(F)F)cc3)CO[C@@H]1C2(F)F [Example 395, 55-(4-(((1R,3S,6S)-7,7-difluoro-1-methyl-2,5-dioxabicyclo[4.1.0]heptan-3-yl)methoxy)phenyl)-2-oxo-6-(trifluoromethyl)-1,2-dihydropyridine-3-carboxamide]",IC50,[1],10 to 100 nM
same,IC50,[2],100 to 1000 nM
"COC[C@H]1COC[C@@H](COc2ccc(-c3cc(C(N)=O)c(=O)[nH]c3C(F)(F)F)cc2)O1 [Example 398, 5-(4-(((2S,6S)-6-(methoxymethyl)-1,4-dioxan-2-yl)methoxy)phenyl)-2-oxo-6-(trifluoromethyl)-1,2-dihydropyridine-3-carboxamide]",IC50,[1],10 to 100 nM
same,IC50,[2],10 to 100 nM
"NC(=O)c1cc(-c2ccc(OC[C@@H]3COC[C@H](C4CC4)O3)cc2)c(C(F)(F)F)[nH]c1=O [Example 404, 5-(4-(((2S,6S)-6-cyclopropyl-1,4-dioxan-2-yl)methoxy)phenyl)-2-oxo-6-(trifluoromethyl)-1,2-dihydropyridine-3-carboxamide]",IC50,[1],10 to 100 nM
same,IC50,[2],10 to 100 nM
"COC[C@@]1(C)COC[C@@H](COc2ccc(-c3cc(C(N)=O)c(=O)[nH]c3C(F)(F)F)cc2)O1 [Example 405, 5-(4-(((2S,6S)-6-(methoxymethyl)-6-methyl-1,4-dioxan-2-yl)methoxy)phenyl)-2-oxo-6-(trifluoromethyl)-1,2-dihydropyridine-3-carboxamide]",IC50,[1],< 10 nM
same,IC50,[2],< 10 nM
"COC[C@]1(C)COC[C@@H](COc2ccc(-c3cc(C(N)=O)c(=O)[nH]c3C(F)(F)F)cc2)O1 [Example 406, 5-(4-(((2S,6R)-6-(methoxymethyl)-6-methyl-1,4-dioxan-2-yl)methoxy)phenyl)-2-oxo-6-(trifluoromethyl)-1,2-dihydropyridine-3-carboxamide]",IC50,[1],< 10 nM
same,IC50,[2],10 to 100 nM
"COC[C@@]1(C)COC[C@H](COc2ccc(-c3cc(C(N)=O)c(=O)[nH]c3C(F)(F)F)cc2)O1 [Example 408, 5-(4-(((2R,6S)-6-(methoxymethyl)-6-methyl-1,4-dioxan-2-yl)methoxy)phenyl)-2-oxo-6-(trifluoromethyl)-1,2-dihydropyridine-3-carboxamide]",IC50,[1],10 to 100 nM
same,IC50,[2],100 to 1000 nM
